Data published in PubChem BioAssay AID933 (National Center for Advancing Translational Sciences (NCATS), 2007).
Listed are the inconclusive results; actives and inactives stand elsewhere. Calls come from the whole dose curve; as a rule, active = well fitted activation curve with a large enough effect in the signal ratio, with a control signal flat; inconclusive = small, poorly fitted or top-dose-only effect, or a change in a side signal; inactive = flat fitted curve, though single readings scatter; the % refers to the signal ratio.

Protein sequences, listed by entry. Tags and fused reporters are not part of them.
UniProt P16473, whole entry, looked up: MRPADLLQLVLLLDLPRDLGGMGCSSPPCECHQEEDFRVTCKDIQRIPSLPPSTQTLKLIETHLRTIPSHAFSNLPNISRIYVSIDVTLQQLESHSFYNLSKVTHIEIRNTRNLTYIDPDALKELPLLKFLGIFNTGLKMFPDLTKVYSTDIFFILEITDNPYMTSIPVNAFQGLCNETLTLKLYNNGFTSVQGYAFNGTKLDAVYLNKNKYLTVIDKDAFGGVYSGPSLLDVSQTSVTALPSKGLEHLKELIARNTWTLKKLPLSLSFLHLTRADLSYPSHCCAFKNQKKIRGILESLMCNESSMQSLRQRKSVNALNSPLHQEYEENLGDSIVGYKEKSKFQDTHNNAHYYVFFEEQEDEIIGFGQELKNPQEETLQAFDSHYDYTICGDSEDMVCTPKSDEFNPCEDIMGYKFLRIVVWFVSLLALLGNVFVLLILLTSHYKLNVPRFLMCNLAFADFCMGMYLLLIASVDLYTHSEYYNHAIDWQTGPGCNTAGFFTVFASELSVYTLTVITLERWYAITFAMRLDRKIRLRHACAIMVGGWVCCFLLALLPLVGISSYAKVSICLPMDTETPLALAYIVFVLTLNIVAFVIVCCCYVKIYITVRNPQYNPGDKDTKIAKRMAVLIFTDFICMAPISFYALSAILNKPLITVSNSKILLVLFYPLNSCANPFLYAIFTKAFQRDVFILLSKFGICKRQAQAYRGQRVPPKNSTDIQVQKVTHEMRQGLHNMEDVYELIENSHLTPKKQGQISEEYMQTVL

Biological target: Thyrotropin receptor (Homo sapiens) (UniProt P16473)
Assay: Secondary Concentration-Response Assay for Agonists of the Thyroid Stimulating Hormone Receptor: HTRF Activity Detection
Conditions: HEK293-TSHR cells, cAMP HTRF ratio, 30 min
From the text: NIH Chemical Genomics Center [NCGC]
NIH Molecular Libraries Screening Centers Network [MLSCN]
PI Name: Dr. Marvin Gershengorn, NIH
Confirmation of Thyroid Stimulating Hormone Receptor Agonists
TSH is an alpha/beta heterodimeric glycoprotein hormone secreted from the anterior pituitary gland which belongs to the glycoprotein hormone family. The actions of TSH are mediated by a seven-transmembrane receptor, which upon TSH binding couples preferentially to the G-alpha (s) protein (Gs), resulting in activation of adenylate cyclase and increase in cyclic adenosine 3', 5' monophosphate (cAMP). The TSH receptor (THSR) is mainly expressed in thyroid follicular cells and regulates their growth and function. […]
A confirmatory assay of putative TSHR agonists was conducted on a different TSHR transfected HEK 293 cell line, using an orthogonal detection technology to measure cAMP stimulation: antibody-based Homogeneous Time Resolved Fluorescence (HTRF). […]
Homogeneous Time Resolved Fluorescence (HTRF) cAMP Assay. […] Plates were measured using the Envision plate reader (PerkinElmer, Boston, MA) with excitation at 330 nm and emissions of 615 nm and 660 nm.
Keywords: Thyroid-stimulating hormone TSH, TSHR, TSHR agonist, quantitative high throughput screening, qHTS, HTS, probe identification, CNG, cAMP, cyclic nucleotide gated ion channel PubChem
Potency is the fitted concentration of half-maximal effect.

**Q.** With `Cc1nn(-c2ccccc2)c2c1P(=O)(N1CCOCC1)N(C)C(c1ccccc1)=N2` (stereo unspecified) as the compound, how does the Potency read?
**A.** inconclusive: 31.6 µM
